# Values of other authors in patent publication US11965206B2, “Method of dosing a patient with multiple drugs using adjusted phenotypes of CYP450 enzymes” (priority 2018, dated 2024).
# Chains of the proteins cited; added tags and fusions are not shown.
# UniProt P08684, whole entry: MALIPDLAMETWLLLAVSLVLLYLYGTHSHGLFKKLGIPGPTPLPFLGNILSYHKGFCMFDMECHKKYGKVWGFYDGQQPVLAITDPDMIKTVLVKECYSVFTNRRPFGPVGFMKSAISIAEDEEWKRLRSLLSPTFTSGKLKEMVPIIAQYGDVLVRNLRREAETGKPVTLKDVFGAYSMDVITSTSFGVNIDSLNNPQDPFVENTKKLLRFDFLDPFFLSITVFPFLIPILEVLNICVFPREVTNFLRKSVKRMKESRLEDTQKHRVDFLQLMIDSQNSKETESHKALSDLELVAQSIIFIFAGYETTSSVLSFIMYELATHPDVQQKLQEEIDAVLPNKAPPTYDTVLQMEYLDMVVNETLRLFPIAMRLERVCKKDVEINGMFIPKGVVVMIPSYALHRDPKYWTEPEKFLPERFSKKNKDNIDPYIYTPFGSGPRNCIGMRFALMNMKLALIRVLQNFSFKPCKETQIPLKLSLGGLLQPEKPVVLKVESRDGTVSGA
# UniProt P10635, whole entry: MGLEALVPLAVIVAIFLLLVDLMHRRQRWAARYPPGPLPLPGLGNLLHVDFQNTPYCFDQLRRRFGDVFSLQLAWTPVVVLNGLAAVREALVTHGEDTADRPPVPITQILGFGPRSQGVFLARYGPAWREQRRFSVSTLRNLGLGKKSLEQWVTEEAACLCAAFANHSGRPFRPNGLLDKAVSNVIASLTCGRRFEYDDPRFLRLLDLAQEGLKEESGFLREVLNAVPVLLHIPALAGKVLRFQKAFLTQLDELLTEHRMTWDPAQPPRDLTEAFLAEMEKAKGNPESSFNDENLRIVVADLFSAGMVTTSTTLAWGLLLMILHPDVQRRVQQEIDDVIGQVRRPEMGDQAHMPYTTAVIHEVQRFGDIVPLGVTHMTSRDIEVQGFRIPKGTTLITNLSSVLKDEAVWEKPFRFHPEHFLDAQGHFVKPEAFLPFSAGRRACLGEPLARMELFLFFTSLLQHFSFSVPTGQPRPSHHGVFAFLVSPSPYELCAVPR
# Experiments:
# CYP450 enzyme 3A4 = CYP450 enzyme 3A4 (Homo sapiens, UniProt P08684); settings: found in drug databases
# CYP450 enzyme 2D6 = CYP450 enzyme 2D6 (Homo sapiens, UniProt P10635); settings: found in drug databases
smiles,measurement,setting,value
O=C(CCCN1CCC(O)(c2ccc(Cl)cc2)CC1)c1ccc(F)cc1 [Haldol],substrate for 3A4,CYP450 enzyme 3A4,substrate
CNCCC(Oc1ccc(C(F)(F)F)cc1)c1ccccc1 (centres unmarked) [Prozac],"strong, moderate or weak inhibitor of 2D6",CYP450 enzyme 2D6,strong inhibitor
